Consider one compound from BindingDB's records for doi:10.1007/s00213-009-1521-8 (Case Western Reserve University, 2009).

Sequences of proteins named here, by UniProt entry; tags and fusion partners are left off.
UniProt P19020, whole entry: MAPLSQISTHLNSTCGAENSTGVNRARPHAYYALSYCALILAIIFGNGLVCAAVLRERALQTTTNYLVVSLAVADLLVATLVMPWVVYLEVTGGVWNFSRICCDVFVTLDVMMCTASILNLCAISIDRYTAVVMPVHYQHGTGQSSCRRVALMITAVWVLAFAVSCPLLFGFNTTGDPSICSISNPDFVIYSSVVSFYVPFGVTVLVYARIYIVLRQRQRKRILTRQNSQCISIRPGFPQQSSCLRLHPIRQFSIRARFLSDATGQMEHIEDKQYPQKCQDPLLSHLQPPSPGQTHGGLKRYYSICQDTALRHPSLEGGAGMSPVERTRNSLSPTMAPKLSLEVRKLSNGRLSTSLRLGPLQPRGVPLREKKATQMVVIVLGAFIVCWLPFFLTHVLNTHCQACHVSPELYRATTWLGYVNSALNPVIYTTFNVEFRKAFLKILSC

The test concerns the target D(3) dopamine receptor (Rattus norvegicus, UniProt P19020).

pKi: −log10 of the molar value.

As usually defined, the pKi is −log10 of the Ki, conventionally taken in molar units. High values mean a low Ki, low ones a high Ki. Take `CCN1CCCC1CNC(=O)c1cc(S(=O)(=O)CC)c(N)cc1OC` (stereo unspecified) [NSC_2159]: the pKi is 8.46.
